Results taken from US12559492B2, “BRAF degraders” (C4 Therapeutics, Inc., priority 2020, dated 2026).

The chains behind the UniProt entries cited, without tags or fusion partners.
UniProt P15056, whole entry V600E: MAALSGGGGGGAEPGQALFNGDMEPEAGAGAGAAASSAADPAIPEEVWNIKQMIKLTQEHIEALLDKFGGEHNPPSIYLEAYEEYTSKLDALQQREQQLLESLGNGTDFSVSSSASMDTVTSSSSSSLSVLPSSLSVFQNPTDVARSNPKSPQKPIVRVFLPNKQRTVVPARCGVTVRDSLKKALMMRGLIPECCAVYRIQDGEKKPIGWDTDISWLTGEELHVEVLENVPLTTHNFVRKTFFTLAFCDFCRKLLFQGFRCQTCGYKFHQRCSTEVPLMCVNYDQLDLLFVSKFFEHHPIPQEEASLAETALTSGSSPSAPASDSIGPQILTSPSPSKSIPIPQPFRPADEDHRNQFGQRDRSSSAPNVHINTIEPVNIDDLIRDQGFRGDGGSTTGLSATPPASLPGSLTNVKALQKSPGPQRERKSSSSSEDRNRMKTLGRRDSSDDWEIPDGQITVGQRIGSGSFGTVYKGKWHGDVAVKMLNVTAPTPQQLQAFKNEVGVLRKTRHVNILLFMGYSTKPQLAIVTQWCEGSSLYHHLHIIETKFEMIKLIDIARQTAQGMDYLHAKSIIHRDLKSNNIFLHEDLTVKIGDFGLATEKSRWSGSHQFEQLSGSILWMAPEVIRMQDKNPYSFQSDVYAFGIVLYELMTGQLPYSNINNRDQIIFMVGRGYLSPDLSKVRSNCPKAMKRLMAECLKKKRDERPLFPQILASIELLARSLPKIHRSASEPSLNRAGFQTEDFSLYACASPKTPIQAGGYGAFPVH

Target: BRAF^V600E protein (Homo sapiens, UniProt P15056, V600E)
Assay: HiBiT cellular BRAF V600E degradation assay
Conditions: 24 h incubation, tested form: TFA
From the text: DMEM no-phenol red medium supplemented with L-glutamine was purchased from (Corning). Fetal bovine serum (FBS) was purchased from Gibco (Grand Island, NY, USA). Nano-Glo® HiBiT Lytic Assay Buffer & Reagents were purchased from Promega (Madison, WI, USA). A375 (harboring BRAF homozygous V600E mutation) was purchased from ATCC. A375.10 cell line was generated from A375 cell line from ATCC by knocking-in a HiBiT tag at the N-terminal of BRAF^V600E protein via CRISPR technology. Cell culture flasks and 384-well black flat-bottom polystyrene TC-treated microplates were acquired from Corning (Corning, NY, USA).
HiBiT Cellular BRAFv^600E Degradation Assay
Prior to the assay, the A375.10 cell line is maintained in DMEM no-phenol red medium supplemented with 10% fetal bovine serum (FBS). Following compound treatment, BRAF^V600E degradation was determined based on quantification of HiBiT luminescence signal by lysing the cells followed by addition of Nano-Glo® HiBiT Lytic Assay Reagents. The luminescence signal detected correlates with the total BRAF^V600E protein level in cells. […] After the desired incubation time with compound, 30 uL of Nano-Glo® HiBiT Lytic Buffer containing LgBiT protein (diluted 1:100) and luminescence substrate (diluted 1:50) were added to the cells in columns 1-23 of the assay plate. […]

SMILES: CCN(C)S(=O)(=O)Nc1ccc(F)c(C(=O)c2c[nH]c3ncc(-c4cnc(N5CCC(NC(=O)N6CCC(c7ccc(NC8CCC(=O)NC8=O)cc7)CC6)CC5)nc4)cc23)c1F (centres unmarked)
- HiBit 24 h Emax (A375.10 cells, Emax = amount of residual protein remaining in the cell after compound treatment): 19.33%
- DC50 (read-out: HiBit 24 h DC50, A375.10 cells (HiBiT tag knocked in at N-terminal of BRAF V600E), concentration at which 50% of total cellular BRAF V600E is degraded): 6.93 nM
